Marks after values point to notes of the source that are not given here.

Data set [1] can be described thus: Kinetic stability of compounds in acidic medium (Gd3+ dissociation rate). Conditions: pH 1.2 hydrochloric acid, 37 °C, 8×10^−6 M. The method, then: (§1) Gadobutrol, RC1 (Gadopiclenol, prepared according to the method described in example 2 of WO 2020030618 A1), compound 4 and compound 5.
Molecular Devices SpectraMax M2/M2e Microplate Reader.
(1) Hydrochloric acid (pH 1.2) was used as a solvent, and solutions of RC1, compound 4, compound 5 and gadobutrol were prepared at a concentration of 8×10^−6 M, respectively, for subsequent use.
(2) Standard curve plotting: An appropriate amount of GdCl3·6H2O (Shanghai Dingxian Biotechnology Co., Ltd.) was accurately weighed into vials. Then, 1 mL of solutions containing free Gd^3+ at concentrations of 0, 1×10^−6 M, 2×10^−6 M, 4×10^−6 M, 6×10^−6 M, 8×10^−6 M and 10×10^−6 M were prepared respectively using deionized water. Each of the solutions was thoroughly mixed with 40 μL of 5.3×10^−4 M arsenazo III solution (a chromogenic reagent, Shanghai Macklin Biochemical Co., Ltd.) via vortexing. After incubation in the dark at room temperature for 15 min, 150 μL of the mixture was transferred to each well (with duplicate wells) in a 96-well plate, and the absorbance was determined at a wavelength of 655 nm. A standard curve of Gd^3+ concentration versus absorbance was established.
(3) Compound testing: 500 ml of each pre-prepared test solution at a concentration of 8×10^−6 M was evenly dispensed into 3 vials, with 150 mL per vial. The vials were placed at 37 °C 25 mL of the solution was collected from each vial at 0 h, 24 h, 48 h, 96 h and 168 h, respectively. NaOH was added to adjust the pH of the solution to neutral (as indicated by pH test paper). Subsequently, 1 mL of 5.3×10^−4 M arsenazo III solution was added, and the mixture was thoroughly mixed via vortexing. After incubation in the dark at room temperature for 15 min, 150 μL of the mixture was transferred to each well (with duplicate wells) in a 96-well plate, and the absorbance of the samples was determined at a wavelength of 655 nm.
(4) The concentration of free Gd^3+ and the dissociation rate of each test solution at different time points were calculated based on the formula fitted from the standard curve.

Data set [2] can be described thus: Metal transfer stability test of compounds in the presence of zinc ions. Conditions: with ZnCl2, phosphate buffer, 37 °C, 0.5 T. How it is done:
1. Experimental protocol 2. Test samples: compound 4, gadodiamide, gadobutrol. 3. Experiment instruments: VTMR20-010V-1 Nuclear Magnetic Resonance Cross-Linking Density Imaging Analyzer 4. Experimental method
A 2.5 mM solution of contrast agent solutions and a 2.5 mM solution of zinc chloride were respectively prepared in phosphate buffer (0.026 mol/L KH2PO4 and 0.041 mol/L Na2HPO4). An equal volume of a 2.5 mM ZnCl2 solution was added to a 2.5 mM gadolinium contrast agent solution, and the mixture was mixed by shaking. This moment of complete mixing was designated as time zero (t=0). Immediately thereafter, a 0.5 mL aliquot was withdrawn and subjected to measurement of the longitudinal relaxation time, T1(0), at 37 °C and a magnetic field strength of 0.5 T. The mixed solution was then incubated at 37 °C. 0.5 mL of the solution was taken at time points of 5 min, 180 min, 1440 min and 5760 min, respectively, to determine T1(t) at different time points. The ratio of the relaxivity at different time points to the initial relaxivity at time 0, namely R1(t)/R1(0), was calculated.

Data set [3] can be described thus: Relaxivity of the compound in water. The conditions noted are these: in deionized water. The method, then:
as §1
Niumag (Suzhou) Nuclear Magnetic Resonance Contrast Agent Relaxivity Analyzer with a 0.5 T magnetic field
Bruker Small Animal Magnetic Resonance Imaging System (BioSpec 70/20 USR) with a 7 T magnetic field
Gadobutrol, RC1, compound 4 and compound 5 were accurately weighed and dissolved in deionized water to prepare solutions with concentrations of 0.5 mM, 1 mM, 2 mM and 4 mM, respectively. 1 mL of the test sample was placed in a 1.5 mL EP (eppendorf) tube, and the longitudinal relaxation time T1 and transverse relaxation time T2 under different magnetic field conditions were measured separately using the Niumag (Suzhou) Nuclear Magnetic Resonance Contrast Agent Relaxivity Analyzer with a 0.5 T magnetic field. The test sample was loaded into a 0.2 mL sample tube until full, and the longitudinal relaxation time T1 and transverse relaxation time T2 under different magnetic field conditions were measured separately using the Bruker Small Animal Magnetic Resonance Imaging System (BioSpec 70/20 USR) with a 7 T magnetic field.
(§2) Based on the relaxation times T1 and T2 of samples at different concentrations, the relaxivities r1 and r2 were calculated respectively. The relaxivity was calculated according to the following equation: […]
r: relaxivity; T: relaxation time (s); C: contrast agent concentration (mM).

The nature of data set [4]: Determination of relaxivity of compounds in human plasma. Conditions: 0.5 T, human plasma containing sodium heparin. The method, then: In other embodiments, in the longitudinal relaxivity r1 test experiment in human plasma (the longitudinal relaxation time T1 is measured at a 0.5 T magnetic field strength using a medium-sized nuclear magnetic resonance imaging analyzer (MesoMR23-060-I), and the relaxivity r1 is calculated based on the relaxation time T1 of samples at different concentrations according to the relaxivity calculation formula
Gadobutrol (Gadovist®), EIucirem™ (Gadopiclenol, commercially purchased), compound 4.
Medium-Sized Nuclear Magnetic Resonance Imaging Analyzer (model: MesoMR23-060-I) with a 0.5 T magnetic field
Human plasma containing sodium heparin was used as the matrix. Compound 4 (0.5 M), gadobutrol injection (1 M) and Gadopiclenol injection (0.5 M) were separately diluted to prepare test solutions at concentrations of 4, 2, 1, 0.5 and 0.25 mM, respectively. 1 mL of each test sample was transferred into a 1.5 mL centrifuge tube, and the longitudinal relaxation time T1 and transverse relaxation time T2 were measured at a 0.5 T magnetic field strength using the Medium-Sized Nuclear Magnetic Resonance Imaging Analyzer (MesoMR23-060-1).
as §2

In another data set the test system is canine plasma proteins. The experiment in a line: In vitro canine plasma protein binding rate of compounds. Conditions: 1 mM. How it is done:
1. Test samples: EIucirem™ (Gadopiclenol, commercially purchased, lot P233A), compound 4
Elucirem™ and compound 4 were respectively diluted with blank canine plasma to prepare plasma samples at a concentration of 1 mM. The binding rates of Gadopiclenol and compound 4 to canine plasma proteins were determined by ultracentrifugation. After the preparation of plasma samples, 0.5 mL of plasma samples were transferred into ultracentrifugation tubes, with 3 replicates per concentration. After incubation in a CO2 incubator at 37 °C for 0.5 h, the samples were subjected to ultracentrifugation at 627,000 g for 3 hours at 37 °C. After centrifugation, 100 μL of samples were taken from the central layer of the ultracentrifugation tubes and mixed with 100 μL of blank plasma. The samples were stored at −70 °C for subsequent determination. The concentrations of Gadopiclenol and compound 4 in the samples were quantitatively analyzed by LC-MS/MS.
The plasma protein binding rates of analytes at different concentration levels were calculated using the following formulas:
Free rate %=(Concentration of the central layer in ultracentrifugation tubes(Cu)/Concentration of non-ultracentrifuged samples after 0.5 h incubation(C0-5h))*100%, • Binding rate %=100%—Free rate %.

Where [5] appears, read: 0 h, BLQ is below the limit of quantification.
Setting [6] is: 24 h, BLQ is below the limit of quantification.
Setting [7] is: 48 h, BLQ is below the limit of quantification.

With “2,2′,2′-(1^3-methoxy-3,6,9-triaza-1(2,6)-pyridine cyclodecane-3,6,9-triyl)tris(5-((2,3-dihydroxypropyl)amino)-5-oxopentanedioic Acid)gadolinium (III) Complex”, the “Gd^3+ Dissociation rate (%)” value in data set [1] (setting [5]) was “BLQ”; in data set [1] (setting [6]), 24.1%; in data set [1] (setting [7]), 28.7%; in data set [1] (96 h) it was 32.3%; in data set [1] (168 h) it was 42.1%.

Consider Gadobutrol, for which the “R1(t)/R1(0)” value in data set [2] (0 min) is reported as 1; in data set [2] (5 min), 0.93; in data set [2] (180 min) it was 0.82; in data set [2] (1440 min), 0.96; in data set [2] (5760 min) it was 0.90. For the same substance, the “Relaxivity r1” value in data set [3] (0.5 T) stood at 4.4 mM⁻¹ s⁻¹; in data set [3] (7 T), 3.5 mM⁻¹ s⁻¹; in data set [4], 7.5 mM⁻¹ s⁻¹. Further, the “Gd^3+ Dissociation rate (%)” value in data set [1] (setting [5]) is “BLQ”; in data set [1] (setting [6]), 73.5%; in data set [1] (setting [7]) it was 70.1%; in data set [1] (96 h) it was 64.6%; in data set [1] (168 h), 95.3%.

Regarding Gadodiamide, the “R1(t)/R1(0)” value is given as 1 in data set [2] (0 min); 1.07 in data set [2] (5 min); 0.59 in data set [2] (180 min); 0.59 in data set [2] (1440 min); 0.38 in data set [2] (5760 min).

Take Gadopiclenol: in the data set on canine plasma proteins, the “binding to canine plasma proteins (in words)” value is on record as “does not bind to plasma proteins”. Further, the “Average % (plasma protein binding rate)” value with canine plasma proteins (ultracentrifugation, 37 °C, average of 3 replicates, if the binding rate is less than 0, the average is recorded as 0%) is on record as 0* %. For the same substance, the “Relaxivity r1” value was 11.7 mM⁻¹ s⁻¹ in data set [3] (0.5 T) and 6.3 mM⁻¹ s⁻¹ in data set [3] (7 T). The “Gd^3+ Dissociation rate (%)” value in data set [1] (setting [5]) is on record as “BLQ”; in data set [1] (setting [6]), 24.7%; in data set [1] (setting [7]), 35.6%; in data set [1] (96 h) it was 37.8%; in data set [1] (168 h), 61.1%.

These data come from US20260382770A1, “MACROCYCLIC COMPOUND AND USE THEREOF” (published 2026).
